These are literature values, as cited in paper PMC7689490, “Designed CXCR4 mimic acts as a soluble chemokine receptor that blocks atherogenic inflammation by agonist-specific targeting” (Nature Communications, 2020).

This series has as its target human or mouse MIF. The following applies: read-out: KD for MIF; ref [63].

B1: Imalumab: anti-MIF antibody (antibody, chains of the INN, looked up, V domains shown)
VH: EVQLLESGGGLVQPGGSLRLSCAASGFTFSIYSMNWVRQAPGKGLEWVSSIGSSGGTTYYADSVKGRFTISRDNSKNTLYLQMNSLRAEDTAVYYCAGSQWLYGMDVWGQGTTVTVSS
VL: DIQMTQSPSSLSASVGDRVTITCRSSQRIMTYLNWYQQKPGKAPKLLIFVASHSQSGVPSRFRGSGSETDFTLTISGLQPEDSATYYCQQSFWTPLTFGGGTKVEIK
For B1, the Kd was 1 to 3 nM.
